# In PubChem BioAssay AID1671190 (National Center for Advancing Translational Sciences (NCATS), 2021):
# Protein sequences, listed by entry. Tags and fused reporters are not part of them. Lines headed by an entry give the natural chain unless they say otherwise; changes in a name come on top.
# UniProt P18054: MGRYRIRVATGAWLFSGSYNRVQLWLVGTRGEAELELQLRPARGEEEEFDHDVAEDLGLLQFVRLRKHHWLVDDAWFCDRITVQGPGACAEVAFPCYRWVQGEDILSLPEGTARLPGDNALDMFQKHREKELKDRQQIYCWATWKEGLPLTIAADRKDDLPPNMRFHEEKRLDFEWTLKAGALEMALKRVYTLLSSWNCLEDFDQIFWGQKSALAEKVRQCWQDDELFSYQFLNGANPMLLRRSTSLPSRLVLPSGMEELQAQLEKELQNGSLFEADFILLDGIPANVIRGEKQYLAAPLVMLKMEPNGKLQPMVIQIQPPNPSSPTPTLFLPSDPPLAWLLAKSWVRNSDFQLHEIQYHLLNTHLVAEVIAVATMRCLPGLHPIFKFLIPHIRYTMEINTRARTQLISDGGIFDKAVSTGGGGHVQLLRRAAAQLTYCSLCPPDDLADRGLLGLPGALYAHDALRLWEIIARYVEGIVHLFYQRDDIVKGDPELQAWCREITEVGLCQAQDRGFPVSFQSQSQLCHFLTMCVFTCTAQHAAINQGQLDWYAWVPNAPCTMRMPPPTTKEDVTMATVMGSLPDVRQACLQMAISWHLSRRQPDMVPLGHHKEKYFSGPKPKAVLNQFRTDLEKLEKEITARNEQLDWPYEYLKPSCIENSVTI
# Out of some 580,000 compounds screened, about 6,100 (1.1%) were called active. All entries are inconclusive by the source's own rule. Clear calls are listed elsewhere. Calls follow the shape of the dose curve; as a rule, active = well fitted inhibition curve with a large enough effect; inconclusive = small, poorly fitted or top-dose-only effect, or another doubt; inactive = no such curve, though single readings can be large or run the other way.
# Target: Polyunsaturated fatty acid lipoxygenase ALOX12 (Homo sapiens) (UniProt P18054)
# Experiment: Primary qHTS assay for inhibitors of human arachidonate 12S-lipoxygenase (ALOX12): Round 2
# Details: purified 12hLO, xylenol orange hydroperoxide absorbance
# Description: Assay Provider: Theodore R. Holman Ph.D. University of California, Santa Cruz, California Human lipoxygenase 12hLO is a member of the closely related lipoxygenase family of enzymes which catalyze the site-specific oxidation of arachidonic acid to various hormone precursor molecules and as such is a candidate for drug development in a variety of disease areas, such as cancer and inflammation. Inhibition of 12hLO activity was screened by utilizing arachidonic acid as a substrate. The extent of hydroperoxide product formation was measured by a secondary chromogenic reaction in which xylenol orange (XO, Sigma-Aldrich, cat. number 39,818-7) reacts with the ferric ions produced from the reaction between the hydroperoxide and ferrous ions. The Fe (III)-XO complex is characterized with red-shifted absorbance at 560 nm. A purified preparation of human 12hLO was supplied by Dr. Holman laboratory, University of California, Santa Cruz.
# PROTOCOL TABLE SEQUENCE No. (e.g., 1, 2, 3, etc.); […] (e.g., Cells, Incubation, Reagent, etc.); VALUE; DESCRIPTION 1; Enzyme; 3 uL; 150 nM 12hLO enzyme solution dispensed in 1536-well Greiner black, clear bottom plates. 2; Compound; 23 nL; compounds and controls were added. 3; Incubate; 15 min; room temperature. 4; Substrate; 1 uL; 40 uM arachidonic acid (final concentration). 5; Incubate; 30 min; room temperature. 6; Reagent; 4 uL; Fe-XO solution was added to each well. 7; Incubation; 30 min; room temperature 8; Detector; absorbance; Read 1 at 405 nm absorbance using ViewLux (Perkin-Elmer) CCD imager. 9; Detector; absorbance; Read 2 at 573 nm absorbance using ViewLux (Perkin-Elmer) CCD imager. NOTES (numbers refer to sequence above) 1; 150 nM 12hLO (final concentration) in buffer solution (25 mM Hepes, 0.01% Triton X-100, pH 7.0) was dispensed in columns 1, 2, 5-48. Column 1 is neutral (100% activity). Buffer only was dispensed in columns 3 and 4 as no enzyme negative controls. The plates were covered with metal lids with gas-exchange holes. 2; Compounds were pin transferred via a Kalypsys Pin Tool (Wako USA) in column 5-48. Control compound was transferred in column 2, titration of nordihydroguaiaretic acid (NDGA, Sigma-Aldrich, N5023) with top concentration of 20 mM in DMSO then 1:3 dilution in duplicate. Dilution factor of 23 nL into 4 uL final assay volume. 3; Covered assay plates were incubated for 15 min at room temperature. 4; Substrate was added to start the reaction; 40 uM arachidonic acid (Sigma-Aldrich, St. Louis, MO) was dispensed throughout the plate. 6; Chromogenic detection reagent solution (divalent iron/xylenol orange, Fe-XO) was added to each well: 200 uM xylenol orange, 300 uM ferrous ammonium sulfate prepared freshly in 50 mM sulfuric acid. 8, 9; Two absorbance readouts were obtained at 405 nm and at 573 nm using a ViewLux high-throughput CCD plate imager (Perkin-Elmer). The 573 to 405 (Read 2 / Read 1) absorbance ratio was used to compute reaction progress.
# Potency is read from the fitted curve at half-maximal effect.
row,SMILES,Potency
1,CNCc1cccc(C)n1,inconclusive: 8.91 µM
2,Clc1cccc(NC2=NCC(CBr)S2)c1 (configuration not stated),inconclusive: 28.2 µM
3,CCOC(=O)c1ccc(NC(=O)C(C)(CCl)SC)cc1 (configuration not stated),inconclusive: 44.7 µM
4,CCCCOc1ccc(C(=O)NCC2(N3CCCCC3)CCCCC2)cc1OC,inconclusive: 0.251 µM
5,O=C(/C=C/c1ccccc1)NC(Sc1ccc(Cl)cc1)C(Cl)(Cl)Cl (configuration not stated),inconclusive: 89.1 µM
6,Cc1cc(SC(NC(=O)c2ccccc2)C(Cl)(Cl)Cl)nc(C(C)C)n1 (configuration not stated),inconclusive: 31.6 µM
7,Cc1cc(SC(NC=O)C(Cl)(Cl)Cl)ncn1 (configuration not stated),inconclusive: 15.8 µM
8,O=C(NC(Sc1ccccc1)C(Cl)(Cl)Cl)c1ccc(Cl)cc1 (configuration not stated),inconclusive: 141 µM
9,Fc1ccc(CNC2=NCC(CBr)S2)cc1 (configuration not stated),inconclusive: 20 µM
10,O=C(NC(Sc1ccc(Cl)cc1)C(Cl)(Cl)Cl)c1ccccc1 (configuration not stated),inconclusive: 20 µM
11,O=C(OC1CN2CCC1CC2)c1ccc(Cl)cc1 (configuration not stated),inconclusive: 112 µM
12,Cc1ccc(C(=O)NC(Sc2ccc(Cl)cc2)C(Cl)(Cl)Cl)cc1 (configuration not stated),inconclusive: 112 µM
13,NNc1ccc([N+](=O)[O-])cc1[N+](=O)[O-],inconclusive: 5.01 µM
14,Cc1ccc(NCCc2c([N+](=O)[O-])cc([N+](=O)[O-])cc2[N+](=O)[O-])cc1,inconclusive: 63.1 µM
15,Cc1ccc(C(=O)NC(Sc2ccccc2)C(Cl)(Cl)Cl)cc1 (configuration not stated),inconclusive: 89.1 µM
16,Cc1ccc(S(=O)(=O)N(CCCN)CCCc2c(C)nc(N)[nH]c2=O)cc1,inconclusive: 39.8 µM
17,Clc1n[nH]nc1-c1nn[nH][15n]1,inconclusive: 1.58 µM
18,CC1(CBr)Cn2c(nc3ccccc3c2=O)S1 (configuration not stated),inconclusive: 44.7 µM
19,ClCCNC1C2CC3CC(C2)CC1C3 (configuration not stated),inconclusive: 2.82 µM
20,CNCc1cc2ccccc2o1,inconclusive: 1.03 µM
21,COc1ccc(N)c([N+](=O)[O-])c1[N+](=O)[O-],inconclusive: 44.7 µM

row,SMILES,Potency
1,O=P(Nc1ccccn1)(c1ccc(Br)cc1)c1ccc(Br)cc1,inconclusive: 44.7 µM
2,C(Cc1nn[nH]n1)Cc1nn[nH]n1,inconclusive: 1.78 µM
3,CCNC(=S)/N=C(\N)N[N+](=O)[O-],inconclusive: 8.91 µM
4,Cc1ccccc1OP(=O)(Nc1ccccn1)Oc1ccccc1C,inconclusive: 100 µM
5,CC(NC(=O)COC(=O)C(O)(c1ccccc1)c1ccccc1)c1ccccc1 (configuration not stated),inconclusive: 112 µM
6,O=c1c2cc([N+](=O)[O-])ccc2[nH]c2c([N+](=O)[O-])cc([N+](=O)[O-])cc12,inconclusive: 44.7 µM
7,CCc1cc(O)c([N+](=O)[O-])c(C)c1[N+](=O)[O-],inconclusive: 56.2 µM
8,O=P1(Nc2nc3ccc(Cl)cc3s2)COc2ccccc2O1 (configuration not stated),inconclusive: 50.1 µM
9,CC(=O)Nc1ccc([As](=O)(O)O)c(O)c1,inconclusive: 31.6 µM
10,N#C/C(=C\c1ccc(N(CCBr)CCBr)cc1)C(N)=O,inconclusive: 10 µM
11,Cc1ccc(OP(=O)(Nc2nccs2)Oc2ccc(C)cc2)cc1,inconclusive: 126 µM
12,CN1CCCC(OC(=O)C(c2ccccc2)c2ccccc2)C1 (configuration not stated),inconclusive: 22.4 µM
13,O=C(NC(Sc1ccncn1)C(Cl)(Cl)Cl)c1ccccc1 (configuration not stated),inconclusive: 14.1 µM
14,Cc1cc(SC(NC(=O)c2ccc(F)cc2)C(Cl)(Cl)Cl)ncn1 (configuration not stated),inconclusive: 10 µM
15,CN(C(=O)Cc1ccc(Cl)c(Cl)c1)[C@H]1CCCC[C@@H]1N1CCCC1,inconclusive: 28.2 µM
16,BrCCNCCc1ccncc1,inconclusive: 25.1 µM
17,CN(C)P(=O)(N(C)C)n1c(Nc2ccccc2)nnc1-c1ccccc1,inconclusive: 100 µM
18,CC(C)(C)C(=O)NC(Sc1ccncn1)C(Cl)(Cl)Cl (configuration not stated),inconclusive: 2.82 µM
19,O=[N+]([O-])c1cccc2n[nH]nc12,inconclusive: 20 µM
20,CCc1nc2c(n1)c1c(non1O)c1c2no[n+]1[O-],inconclusive: 89.1 µM
21,C[N+]1=C2C=CC=CC=C2SC12C([N+](=O)[O-])=CC([N+](=O)[O-])=C[C-]2[N+](=O)[O-] (configuration not stated),inconclusive: 2.82 µM
